Results on 1 substance are retold here after patent US20130036481A1.

Chains of the proteins cited; added tags and fusions are not shown. Residues count along the entry.
UniProt Q62469, 27-1178, chain 1 of 2: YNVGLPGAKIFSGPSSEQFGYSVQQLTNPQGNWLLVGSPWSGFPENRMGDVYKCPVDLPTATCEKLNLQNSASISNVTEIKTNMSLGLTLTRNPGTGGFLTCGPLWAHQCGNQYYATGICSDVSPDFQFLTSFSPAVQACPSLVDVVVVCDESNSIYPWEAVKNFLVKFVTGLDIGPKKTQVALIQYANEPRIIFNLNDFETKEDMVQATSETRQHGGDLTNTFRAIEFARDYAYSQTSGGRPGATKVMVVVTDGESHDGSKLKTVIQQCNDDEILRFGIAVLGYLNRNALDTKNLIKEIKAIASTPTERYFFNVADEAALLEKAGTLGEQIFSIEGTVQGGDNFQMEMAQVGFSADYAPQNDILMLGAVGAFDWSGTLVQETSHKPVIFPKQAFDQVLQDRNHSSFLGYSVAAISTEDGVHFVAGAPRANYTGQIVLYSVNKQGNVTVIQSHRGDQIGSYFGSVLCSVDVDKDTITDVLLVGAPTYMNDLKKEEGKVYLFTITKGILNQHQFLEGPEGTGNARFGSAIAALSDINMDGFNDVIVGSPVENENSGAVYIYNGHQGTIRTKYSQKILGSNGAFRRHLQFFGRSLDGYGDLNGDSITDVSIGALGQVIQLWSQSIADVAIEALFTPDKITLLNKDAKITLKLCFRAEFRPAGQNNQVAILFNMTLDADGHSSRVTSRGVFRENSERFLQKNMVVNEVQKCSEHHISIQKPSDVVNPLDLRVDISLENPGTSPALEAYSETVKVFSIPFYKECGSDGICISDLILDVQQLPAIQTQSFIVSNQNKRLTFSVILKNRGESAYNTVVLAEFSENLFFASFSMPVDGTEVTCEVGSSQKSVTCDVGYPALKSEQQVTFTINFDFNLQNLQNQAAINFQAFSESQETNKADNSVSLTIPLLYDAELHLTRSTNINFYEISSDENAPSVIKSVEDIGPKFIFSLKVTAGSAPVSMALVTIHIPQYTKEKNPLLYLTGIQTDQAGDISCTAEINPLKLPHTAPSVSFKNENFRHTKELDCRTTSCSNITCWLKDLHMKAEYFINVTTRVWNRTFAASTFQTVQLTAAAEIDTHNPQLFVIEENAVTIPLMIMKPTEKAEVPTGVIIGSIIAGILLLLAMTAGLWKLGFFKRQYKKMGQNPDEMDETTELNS

The assay addresses α2 integrin (α2β1) on mouse cortical cultures (mouse) (UniProt Q62469). Description: cell-based or functional assay.

As for “Amyloid Beta (Aβ) peptide, length not stated for this assay”, the Aβ toxicity in wild type mouse cortical cultures (% of control), three doses of Aβ was 73 to 97 % of control.
